# Curated experimental data: water solubility values

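These are experimental values that the OPERA curators gathered from public databases to train and test their QSAR models. The files give a single number for a compound and property, which may rest on several reports. Method, purity and exact conditions of the single measurements are not given. A value may pool stereoisomers or salt forms, and the file does not say which form was measured. Some entries may be limits or estimates that an upstream database listed as plain numbers.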

Water solubility is log10 of mol/L, nominally at 25 °C; higher is more soluble.

compound,log solubility (log10 mol/L)
CC(=O)Oc1ccc(Br)cc1,-2.417
CCCCC(=O)CC(C)=O,-1.56
CCC[C@H](NC(=O)[C@@H]1[C@H]2CCC[C@H]2CN1C(=O)[C@@H](NC(=O)[C@@H](NC(=O)c1cnccn1)C1CCCCC1)C(C)(C)C)C(=O)C(=O)NC1CC1,-4.721
COc1cc(Cl)c(OC)cc1N,-3.006
CC[C@@]12CCC3=C(CCc4cc(OC)ccc43)[C@H]1CCC2=O,-4.773
C=C(C)C(=O)Oc1ccc(C(=O)c2ccccc2)cc1,-4.823
Nc1ccc(S(=O)(=O)Nc2ncnc3nc[nH]c23)cc1,-4.349
O=[N+]([O-])c1ccc(N=Nc2ccc(N(CCO)CCO)cc2)c([N+](=O)[O-])c1,-5.222
Nc1c(S(=O)(=O)O)ccc2ccccc12,-2.16
CCNc1cccc(C)c1,-2.078
Cc1cccc(CC(C)(C)CO)c1,-2.827
Cl.NNc1nncc2ccccc12,-0.648
CC1=CCC(O)(C(C)C)CC1 (stereo not drawn),-1.939
O=C1CCCCCCCCCCCCCC1,-5.589
CNC(=O)c1ncnc2nc[nH]c12,-2.364
CCOC(=O)C1CC(=O)C(=C(O)C2CC2)C(=O)C1 (stereo not drawn),-3.171
O=C(O)CN=C(O)c1cccc([N+](=O)[O-])c1,-1.782
CC(=O)CC(=O)Nc1ccccc1Cl,-2.407
OC(=Nc1ccccc1)NC1CCCCC1,-3.16
Nc1ccccc1S(=O)(=O)O,-1.747
CCCCCC1(C)CCC(C)(C)C1=O (stereo not drawn),-4.017
COC(=O)c1ccccc1C,-1.757
CCOC(=O)CNC(C)=CC(C)=O,-0.586
CC(=O)O[C@]1(C)CC[C@@]23C[C@@H]1C(C)(C)[C@@H]2CC[C@H]3C,-5.427
O=C(c1ccc(O)cc1)c1ccc(O)cc1,-2.812
CCCC1CCCC(C2CCCC(c3cc(F)c(F)c(F)c3)C2)C1 (stereo not drawn),-5.831
O=C(c1ccccc1)C1(O)CCCCC1,-2.665
CC(=O)Nc1ccc(/N=N/c2cc(C)ccc2O)cc1,-5.36
CC(=O)Nc1ccc(C=O)cc1,-1.58
O=C(O)c1cc([N+](=O)[O-])ccc1Cl,-1.748
COC(=O)C1=C(C)NC(C)=C(C(=O)OCCN(C)Cc2ccccc2)C1c1cccc([N+](=O)[O-])c1 (stereo not drawn),-5.288
CC(C)n1c(/C=C/[C@@H](O)C[C@@H](O)CC(=O)OC(C)(C)C)c(-c2ccc(F)cc2)c2ccccc21 (racemic),-6.625
COC(=O)C1=CO[C@@H](O[C@@H]2O[C@H](CO)[C@@H](O)[C@H](O)[C@H]2O)[C@H]2[C@@H]1C(=O)C[C@@H]2C,-0.265
COC(C)(C)C1CC=C(C)CC1 (stereo not drawn),-3.297
CCCOc1ccc(S(=O)(=O)NCCC2CCCN2C)cc1-c1nc(=O)c2c([nH]1)c(CCC)nn2C (stereo not drawn),-3.811
Oc1ccc(Oc2ccc(Cl)cc2Cl)cc1,-4.2
Nc1ccc(F)cc1-c1ccc(Cl)c(Cl)c1,-4.616
CC(CC=O)CCCC(C)(C)O (stereo not drawn),-1.753
C=CCOCC(CC)(CO)COCC=C,-1.718
COc1cc([N+](=O)[O-])ccc1N=Nc1ccc(N(CCO)CCO)cc1C,-5.348

From the experimental data distributed with OPERA 2.9.